This is an account of results in ChEMBL document CHEMBL2311304, “Design, synthesis and in vitro and in vivo antitumor activities of novel bivalent β-carbolines” (Eur J Med Chem, 2013).

Structures are written as SMILES.

For the series, the system named is Mus musculus. Kind of series: Acute toxicity in ip treated C57BL/6 mouse for 14 days. Type of series: organism-based. The conditions noted are these: in vivo, 336 h. A digest of the protocol: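 C57BL/6 mice (9–12 weeks, 18–22 g) were fasted overnight with free water. They received single i.p. doses of 1.0–500 mg kg-1 in 0.5% CMC-Na, 10 mice per group (5 male, 5 female). Mice were watched continuously for 2 h, then intermittently to 24 h, then occasionally to 14 days. Heart, liver and kidneys were checked macroscopically. LD50 was derived graphically.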
Broadly, the LD50 is the dose expected to kill half of the subjects tested. A lower LD50 goes with a more toxic substance. For the compound `c1ccc2c(c1)c1ccncc1n2CCCCn1c2ccccc2c2ccncc21`, the LD50 worked out at 200 mg/kg.
In turn, `Cc1nccc2c3ccccc3n(CCCCn3c4ccccc4c4ccnc(C)c43)c12` yielded an LD50 of 200 mg/kg.
Consider `Cc1nccc2c3ccccc3n(CCCCCCn3c4ccccc4c4ccnc(C)c43)c12`, for which the LD50 came out at 200 mg/kg.
Compound `COc1ccc2c3ccnc(C)c3n(CCCCn3c4cc(OC)ccc4c4ccnc(C)c43)c2c1` had an LD50 of 50 mg/kg.
